We go through 14 compounds from patent publication US20030171347A1, “Sigma receptor antagonists having anti-cocaine properties and uses thereof” (priority 1998, published 2003).

Some results are limits rather than exact numbers.

In the first series the target is opiate receptors (Rattus norvegicus, UniProt P34975). The series is described as follows: Opiate receptor competition binding. The following applies: read-out: Opiate; rat brain homogenates, [3H]etorphine or [3H]bremazocine.
In the case of `CN(CCc1ccc(N)cc1)CCN1CCCC1` [YZ-030], the IC50 is > 10 µM.
For the compound `CN(CCc1ccccc1N)CCN1CCCC1` [YZ-032], the IC50 was > 10 µM.
The same measure, in the same setting: in the case of `COc1cccc(CCN(C)CCN2CCCC2)c1` it was > 10 µM; in that of `CN(CCc1ccc(Cl)c(Cl)c1)CCN1CCCC1`, > 10 µM.
Regarding `COc1ccc(CC(=O)N(C)CCN2CCCC2)cc1` [YZ-007], the IC50 is > 10 µM.
In the case of `CN(CCc1ccc(Cl)c(Cl)c1)CCN1CCCCCC1`, the IC50 is > 10 µM.
In the case of `C=CCN(CCc1ccc(Cl)c(Cl)c1)CCN1CCCC1`, the IC50 is > 10 µM.
`COc1ccc(CCN(C)CCN2CCCC2)cc1`: the IC50 is > 10 µM.
On to `COc1ccccc1CC(=O)N(C)CCN1CCCC1` [YZ-008], for which the IC50 is > 10 µM.
Consider `CN(CCc1cccc([N+](=O)[O-])c1)CCN1CCCC1` [YZ-027], for which the IC50 is > 10 µM.
Regarding `CCN(CCc1ccc(Cl)c(Cl)c1)CCN1CCCC1`, the IC50 was > 10 µM.
As for `COc1ccccc1CCN(C)CCN1CCCC1`, the IC50 was > 10 µM.
`COc1cccc(CC(=O)N(C)CCN2CCCC2)c1` [YZ-005]: the IC50 is > 10 µM.

The next series relates to Male, Swiss Webster mice. The series is described as follows: Attenuation of cocaine-induced convulsions, systemic pre-treatment. The following applies: doses that attenuated cocaine-induced convulsions, i.p., mice.
Take `OC(CCCN1CCC(O)(c2ccc(Cl)cc2)CC1)c1ccc(F)cc1` (stereo not drawn) [Reduced haloperidol, reference compound]: the “side effect at therapeutic doses” value is “marked sedation”.

The same series, now with this note: historic sigma compounds 0-60 mg/kg i.p. 15 min before cocaine 60 mg/kg i.p.; observed 30 min.
As to `OC(CCCN1CCC(O)(c2ccc(Cl)cc2)CC1)c1ccc(F)cc1` (stereo not drawn) [Reduced haloperidol, reference compound], the “attenuation of cocaine-induced convulsions (proportion of mice convulsing)” value is reported as “significant attenuation”.
